In the experiment the target is human plasmin (human) (UniProt P00747). The experiment is described as follows: cell-based or functional assay.

In the case of aprotinin (from UniProt P00974 36-93), the prolongation of euglobulin clot lysis time, 20 nM aprotinin worked out at 9 h and the prolongation of euglobulin clot lysis time, 100 nM aprotinin was > 16 h.

The record behind these values is patent US20140142040A1.
